According to US6900221B1, “Stable polymorph on N-(3-ethynylphenyl)-6, 7-bis (2methoxyethoxy)-4-quinazolinamine hydrochloride, methods of production, and pharmaceutical uses thereof” (OSI Pharmaceuticals, Inc., priority 1999, dated 2005):

Tested on: cancer patients with multiple tumor types
Assay: Phase I clinical studies, preliminary evidence of effectiveness in cancer patients
Conditions: human, in vivo
From the text: Evidence of anti-tumor activity can also be seen in the patients with ovarian cancer in the on-going Phase II study.

With `C#Cc1cccc(Nc2ncnc3cc(OCCOC)c(OCCOC)cc23)c1.Cl` [polymorph B, N-(3-ethynylphenyl)-6,7-bis(2-methoxyethoxy)-4-quinazolinamine hydrochloride] the “anti-tumor activity in other EGFR positive tumor types” value was “Documented evidence of anti-tumor activity”.
